{"source": "patent US20190209472A1", "about": "“FORMULATIONS FOR DERMAL DELIVERY OF POLYMER CONJUGATES OF INDOLOCARBAZOLE COMPOUNDS WITH REDUCED EXPOSURE” (Sienna Biopharmaceuticals, Inc., priority 2017, published 2019)", "format": "physicochemical", "protocol": "Twenty-one solvents were selected for the evaluation. Solubility was assessed visually.\nUnder dim light conditions a small amount of API (˜0.05 g) was weighed into type 1 clear glass vials. To each vial, approximately 10 g of the solvent was added. Samples were shaken manually for a few minutes and visually observed to check if the API had dissolved, as indicated by the clarity of the solution. In the event API dissolved, the procedure was repeated by adding more API up to a maximum of 10% w/w.", "note": "“Also recorded” adds a separate entry of the source. Read-outs that look alike come from different tables or passages of the source."}
{"substance": "(9S, 10R, 12R)-10-(3′-mPEG2000-1′,3′-oxazolidine-2′,4′-dione)-2,3,9,10,11,12-hexahydro-9-methyl-1-oxo-9,12-epoxy-1H-diindolo[1,2,3-fg:3′,2′,1′-k,l]pyrrolo[3,4-i][1,6] benzodiazocine] [CT327]", "values": [{"measurement": "Solubility of CT327 in single solvents, Comments", "setting": "N-Methyl pyrrolidone", "value": "good solubility; also recorded: Excellent solubility"}, {"measurement": "Solubility of CT327 in single solvents, Comments", "setting": "Propylene carbonate", "value": "Excellent solubility"}]}
